The text below walks through data of publication PMC4106900 (Journal of medicinal chemistry, 2012).

Each structure is given as a SMILES string.

A short description of the series: Small-animal PET imaging, baseline brain uptake of [18F]13. It is filed as in vivo. The following applies: baseline TAC, whole mouse brain.

With `O=c1sc2cc(CCCF)ccc2n1CCN1CCCCCC1` [[^18F]13, 6-(3-fluoropropyl)-3-(2-(azepan-1-yl)ethyl)benzo[d]thiazol-2(3H)-one], the “time of maximum brain uptake” value is on record as “within the first few minutes”.
